Values quoted from earlier work as cited in US20100273808A1 (Millennium Pharmaceticals, Inc., priority 2008, published 2010).

System: human Flt-3/ITD-positive AML cancer cells
Conditions: preclinical studies; cited from earlier work

COc1cc2c(N3CCN(C(=O)Nc4ccc(OC(C)C)cc4)CC3)ncnc2cc1OCCCN1CCCCC1 [4-[6-methoxy-7-(3-piperidin-1-yl-propoxy)quinazolin-4-yl]piperazine-1-carboxylic acid(4-isopropoxyphenyl)-amide]
killing of Flt-3/ITD-positive AML cancer cells: selectively killed
